According to ChEMBL document CHEMBL1150411, “4-(Phenylaminomethylene)isoquinoline-1,3(2H,4H)-diones as potent and selective inhibitors of the cyclin-dependent kinase 4 (CDK4)” (J Med Chem, 2008):

What was measured:
MCF7 = assay: Antiproliferative activity against human MCF7 cells by SRB method; format: functional, cell-based
Method in brief: (§1)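 Cell growth in 96-well plates measured by sulforhodamine B: cells TCA-fixed, stained with 0.4% SRB, washed in 1% acetic acid, bound dye solubilized in 10 mM Tris, absorbance read. MCF-7 kept in RPMI with 10% FBS, 37 °C, 5-7% CO2.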

HCT-116 = assay: Antiproliferative activity against human HCT116 cells by SRB method; format: functional, cell-based; method in brief: as §1

`C[C@@H]1CN(c2ccc(N/C=C3\C(=O)NC(=O)c4ccc(I)cc43)cc2)C[C@H](C)N1C` showed an IC50 (MCF7) of 1.3 µM and an IC50 (HCT-116) of 2.1 µM.

`CN1CCN(c2ccc(N/C=C3\C(=O)NC(=O)c4ccc(-c5ccoc5)cc43)cn2)CC1` was tested, and the IC50 (MCF7) was 1.7 µM and the IC50 (HCT-116) was 2.1 µM.

Molecule `CN1CCN(c2ccc(N/C=C3\C(=O)NC(=O)c4ccc(-c5ccoc5)cc43)nc2)CC1` has an IC50 (MCF7) of 1.6 µM and an IC50 (HCT-116) of 0.76 µM.

With `CN1CCN(c2ccc(N/C=C3\C(=O)NC(=O)c4ccc(-c5ccccc5)cc43)cc2)CC1` the IC50 (MCF7) was 7.3 µM and the IC50 (HCT-116) was 2.8 µM.

For `CN1CCN(c2ccc(N/C=C3\C(=O)NC(=O)c4ccc(I)cc43)cc2)CC1`, the IC50 (MCF7) was 2.5 µM and the IC50 (HCT-116) was 2.8 µM.

Work on `O=C1NC(=O)c2ccc(-c3ccccc3)cc2/C1=C/Nc1ccc(CN2CCCCC2)cc1` yielded an IC50 (MCF7) of 2.9 µM and an IC50 (HCT-116) of 2.4 µM.

Work on `C[C@@H]1CN(c2ccc(N/C=C3\C(=O)NC(=O)c4ccc(I)cc43)cc2)C[C@H](C)N1` yielded an IC50 (MCF7) of 1.6 µM and an IC50 (HCT-116) of 0.76 µM.

`O=C1NC(=O)c2ccc(Nc3ccccc3)cc2/C1=C/Nc1ccc(CN2CCCCC2)cc1` was tested, and the IC50 (MCF7) was 2.3 µM and the IC50 (HCT-116) was 1.5 µM.

`CC1CN(c2ccc(N/C=C3\C(=O)NC(=O)c4ccc(I)cc43)cc2)CCN1C` (stereo not drawn) was tested, and the IC50 (MCF7) was 1.9 µM.

`O=C1NC(=O)c2ccc(-c3ccc(O)cc3)cc2/C1=C/Nc1ccc(CN2CCCCC2)cc1` showed an IC50 (HCT-116) of 1.6 µM.
